Reference: paper PMC8071193, “Dual-Target Compounds against Type 2 Diabetes Mellitus: Proof of Concept for Sodium Dependent Glucose Transporter (SGLT) and Glycogen Phosphorylase (GP) Inhibitors” (Pharmaceuticals, 2021)

Molecular target: T1, SGLT2 (Homo sapiens, UniProt P31639)
T1 construct: host or cells: TSA201 (Human Embryonal Kidney) cells, lentiviral transduction, puromycin selection
T1 sequence (P31639 1-672): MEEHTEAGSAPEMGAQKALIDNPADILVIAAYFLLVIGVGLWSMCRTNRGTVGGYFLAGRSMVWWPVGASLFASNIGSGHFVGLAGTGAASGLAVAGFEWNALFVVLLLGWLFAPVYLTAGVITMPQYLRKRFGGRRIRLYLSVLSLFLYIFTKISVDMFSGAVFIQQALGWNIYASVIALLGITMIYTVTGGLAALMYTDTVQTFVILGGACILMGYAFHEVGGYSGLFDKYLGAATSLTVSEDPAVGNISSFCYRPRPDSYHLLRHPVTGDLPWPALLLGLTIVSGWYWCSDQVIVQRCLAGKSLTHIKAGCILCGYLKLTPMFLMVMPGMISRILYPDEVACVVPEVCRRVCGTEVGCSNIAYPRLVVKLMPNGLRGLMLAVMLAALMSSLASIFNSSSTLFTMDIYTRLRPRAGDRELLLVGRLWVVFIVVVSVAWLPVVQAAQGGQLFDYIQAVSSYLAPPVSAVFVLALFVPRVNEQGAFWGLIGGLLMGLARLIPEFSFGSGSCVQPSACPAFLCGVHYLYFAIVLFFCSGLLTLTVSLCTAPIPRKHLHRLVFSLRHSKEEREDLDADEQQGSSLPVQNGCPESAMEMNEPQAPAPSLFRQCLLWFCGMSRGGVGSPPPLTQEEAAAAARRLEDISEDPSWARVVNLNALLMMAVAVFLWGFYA
Assay: SGLT2 inhibition, 2-NBDG glucose uptake in SGLT2-overexpressing TSA201 cells
Format: cell-based
Settings: SGLT2-transfected TSA201 cells, presence vs absence of phlorizin, p < 0.05

Which “glucose uptake (2-NBDG)” value does the source give for `O=C(CCc1ccc(O)cc1)c1c(O)cc(O)cc1O[C@@H]1O[C@H](CO)[C@@H](O)[C@H](O)[C@H]1O` [compound 1, phlorizin, reference compound] here?
The value was “significantly decreased glucose uptake”.
